This is a selection; strong and weak results do not stand in their true shares. Activity calls are given as the source filed them.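 How the source made its calls: active means membrane potential signal moved up or down beyond 5 SD of buffer control wells, in both duplicate plates, actives on both sides; inactive means the rest.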
The molecules below were run on Transient receptor potential cation channel subfamily C member 4 (mouse) (assay: TRPC4 modulation by TRPC6 hit compounds, confirmation, selectivity assay for TRPC6 modulator project, cell-based, HEK293 TRPC4/mu-opioid, membrane potential dye, mouse (AID 488927)). Conditions: membrane potential fluorescence, at 10 µM.
With `CCN(CC)CC(O)COC(=O)C(O)(c1ccccc1)C1CCCCC1` (stereo not drawn) the percent of control was active: 21.5%. In the case of `O=C(OC1CN2CCC1CC2)C12CC3CC(CC(C3)C1)C2` (stereo not drawn), the percent of control is reported as active: 17.5%. For `CCN(CC)CCCOC(=O)C(O)(c1ccccc1)c1ccccc1`, the percent of control was active: 15%.
